Sampled rows, rich in hits. Any-hit rate of the full collection: about 2.3%.
GRP78 ERSR act – ER stress response induction in glioma | U87-MG GRP78 promoter luciferase reporter, 16 h | hit rate 0.02% among 420,000 | AID 602332 | Potency, µM, usual class: activators; note: series mostly up to about 76 µM; nearly all actives have a fitted effect of over 35% in size
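ERSR induction read as luciferase luminescence (Bright-Glo, 10 min at room temperature) in stably transfected human U87-MG glioma cells exposed to compounds for 16 h, using GRP78 as sensor.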
Nrf2 block – Nrf2 pathway inhibition; A549 ARE-Fluc reporter, luciferase luminescence, 18-24 h; Potency, µM (titrated, usually from 46 µM), most hits filed as inhibitors; hit rate 2.1% among 360,000; note: nearly all actives have a fitted effect of over 60% in size
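Quantitative HTS in A549 cells stably bearing an antioxidant response element-firefly luciferase construct. Inhibition of Nrf2-driven transcription was scored by luminescence after 18-24 h of compound exposure at 37 °C.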
Mito fusion act – inhibitors of mitochondrial division or activators of mitochondrial fusion; S. cerevisiae fusion-defective mutant growth rescue, CellTiterGlo 48 h; Potency, µM (highest dose often 46.1 µM), actives largely listed as activators; hit rate 0.23% among 320,000; AID 485298; note: nearly all actives have a fitted effect of over 45% in size
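Temperature-sensitive fusion-defective S. cerevisiae (e.g. fzo1-1, mgm1-5) were grown with compound in YPEG medium (3% ethanol, 3% glycerol) for 48 hours at 37C. Growth rescue was measured as viability by CellTiterGlo luminescence after 10 minutes at ambient.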
miR-21 reporter – miR-21 reporter, rising signal; HeLa miR-21 FLuc reporter, luciferase, 48 h; Potency, µM (top dose mostly 38.3 µM); 340,000 tested, under 10 active; active = well fitted rising curve with a large enough effect; inconclusive = small, poorly fitted or top-dose-only effect; inactive = no such curve, though single readings can be large or run the other way;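 note: miR-21 action dims this reporter so a rising signal means less miR-21 action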
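Compounds were titrated across several concentrations (up to approximately 40 uM) and incubated 48 hours with HeLa miR-21-FLuc reporter cells (miR-21 target sequence downstream of FLuc, endogenous miR-21). Readout was firefly luciferase luminescence after lytic detection reagent.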
Nrf2 activator – activates Nrf2 signaling. AREc32 ARE-luciferase reporter (MCF7-derived line), luminescence, 24 h. Potency, µM (titrated, usually from 46.1 µM), actives largely listed as activators. hit rate 0.31% among 410,000. AID 624171; note: nearly all actives have a fitted effect of over 65% in size
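AREc32 cells carrying an ARE-driven firefly luciferase, 1000 cells/well in OPTI-MEM with 5% FBS, dosed after overnight attachment and incubated 24 hr at 37 deg C. Steady-Glo luminescence read after 30 min at RT.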
A549 viability – A549 cytotoxicity, counter-screen for Nrf2 inhibitors. AID 504648. Potency, µM (doses to about 46 µM), actives largely listed as inhibitors. hit rate 0.16% among 390,000. A549 ARE-Fluc cells, CellTiter-Fluor viability, 18-24 h
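A549 ARE_Fluc cells in 5% FBS OPTI-MEM were exposed to compounds in concentration-response for 18-24 h at 37 deg C. Viability was read by CellTiter-Fluor fluorescence (Ex 405/Em 525) after 30 min, before the luciferase read.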
Large screens that a line does not name were inactive; ! = not active in a repeat. Unless noted, calls come from the whole dose curve; as a rule, active = well fitted curve in the direction sought with a large enough effect; inconclusive = small, poorly fitted or top-dose-only effect, or another doubt; inactive = no such curve, though single readings can be large; an effect the other way counts as inactive or inconclusive.

Cc1ccc(S(=O)(=O)N2C[C@@H]3[C@H]4CC[C@H](C4)[C@@H]3[C@@H](C)[C@H]2c2ccco2)cc1	Nrf2 block 21µM (no result: Mito fusion act, miR-21 reporter)
Cc1ccc(S(=O)(=O)N2C[C@@H]3[C@H]4CC[C@H](C4)[C@@H]3[C@@H](C)[C@@H]2c2ccco2)cc1	Nrf2 block inconclusive (no result: Mito fusion act, miR-21 reporter)
CC(=O)C1=C(O)C(=O)N(c2ccccn2)C1c1cccc(F)c1 (stereo not drawn)	none
COc1cc(OC)cc(C(=O)N[C@H](C(=O)Nc2nc3c(s2)CCCC3)C(C)C)c1	Nrf2 block 23µM
COc1cccc(C2C(C#N)=C(N)N(N(C)C)C3=C2C(=O)CCC3)c1OC (stereo not drawn)	none
CCSc1nc2sc3c(c2c(=O)n1-c1ccc(OC)cc1)CCN(C)C3	Nrf2 block 23µM
CCn1ccc(C(=O)NCCCN2CCCC2=O)n1	none
COc1cc2c(cc1NC(=O)c1ccc(C)c([N+](=O)[O-])c1)oc1ccccc12	none
COc1cc2c(cc1NC(=O)c1cccc([N+](=O)[O-])c1)oc1ccccc12	Nrf2 block 16µM, A549 viability 18µM
O=C1CCC(=O)N1c1ccc(NCc2ccccc2Cl)c([N+](=O)[O-])c1	none
Cc1cc(NC(=O)c2cncc(Br)c2)ccc1NC(=O)c1cc2ccccc2o1	Nrf2 block 13µM, A549 viability inconclusive
Cc1ccccc1C(=O)Nc1ccc2nc(Nc3cccc(C(F)(F)F)c3)cc(C)c2c1	Nrf2 block 18µM, miR-21 reporter inconclusive, A549 viability inconclusive (no result: Mito fusion act)
Cc1cc(Nc2cccc(Cl)c2)nc2ccc(NC(=O)c3cncc(Br)c3)cc12	Nrf2 block 18µM, miR-21 reporter inconclusive, A549 viability inconclusive (no result: Mito fusion act)
Cc1cc(Nc2cccc(C(F)(F)F)c2)nc2ccc(NC(=O)c3cncc(Br)c3)cc12	Nrf2 block 21µM (no result: Mito fusion act)
COC(=O)c1c[nH]n2c(=O)c(C(C)C)c(C)nc12	none
O=[N+]([O-])c1ccccc1S(=O)(=O)N1CCN(C2CCCC2)CC1	none
COc1ccc(NC(=O)CCS(=O)(=O)c2cc3c4c(c2)CCN4C(=O)CC3)c(OC)c1	none (no result: Nrf2 block, Mito fusion act)
O=C(c1cnccn1)N1CCC[C@@]2(CCN(Cc3nccs3)C2)C1	none (no result: Nrf2 block, Mito fusion act, miR-21 reporter, Nrf2 activator, A549 viability)
O=C(Nc1cccc(NC(=O)c2cncc(Br)c2)c1)c1cncc(Br)c1	Nrf2 block 8.2µM
CCCc1cc(=O)n2c([nH]c3ccccc32)c1C#N	Nrf2 block 15µM, Mito fusion act inconclusive
CCCCc1c(C)c(C#N)c2[nH]c3ccccc3n2c1=O	Nrf2 block 18µM, A549 viability inconclusive
Cc1c(CCO)c(=O)n2c([nH]c3ccccc32)c1C#N	none
NC(=O)c1ccsc1NC(=O)COC(=O)Cc1c[nH]c2ccccc12	Nrf2 block inconclusive (no result: miR-21 reporter)
NC(=O)c1ccsc1NC(=O)COC(=O)Cc1cccc2ccccc12	Nrf2 block 4.1µM
CC(C)Oc1ccc(C(=O)OC(C)C(=O)NC2CCCCC2C)cc1 (stereo not drawn)	none
CC(OC(=O)c1ccc2c(c1)OCCO2)C(=O)NC1CCCCC1C (stereo not drawn)	Nrf2 block 18µM (no result: miR-21 reporter)
O=C(O)c1ccccc1Nc1ccccc1	Mito fusion act 23µM! (no result: miR-21 reporter)
COc1cccc(Nc2ccccc2C(=O)O)c1	Nrf2 block inconclusive
COc1ccc(C2CC(=O)Oc3ccc(O)cc32)cc1 (stereo not drawn)	none (no result: Nrf2 block, Mito fusion act, miR-21 reporter, Nrf2 activator, A549 viability)
COc1cc(C2CC(=O)Oc3ccc(O)cc32)cc(OC)c1OC (stereo not drawn)	GRP78 ERSR act 50µM (no result: Nrf2 block, Mito fusion act, miR-21 reporter, Nrf2 activator, A549 viability)
CCN(CC)c1ccc2c(-c3ccc(S(=O)(=O)O)cc3S(=O)(=O)[O-])c3ccc(=[N+](CC)CC)cc-3oc2c1	Nrf2 block inconclusive, A549 viability 12µM
O=C(COc1ccc(S(=O)(=O)N2CCCC2)cc1Cl)NCc1cccnc1	none
Cc1c(C(=O)N2CCC(C)CC2)sc2ncnc(N(C)c3ccccc3)c12	Nrf2 block 18µM
Cc1c(C(=O)N2CCC(Cc3ccccc3)CC2)sc2ncnc(N3CCC(C)CC3)c12	none
Cc1csc2c(=O)sc(NC(=O)c3cccs3)nc12	Nrf2 block inconclusive, Nrf2 activator 3.5µM
CCN(C(=O)Cn1nnc2sc(-c3ccccc3)cc2c1=O)c1cccc(C)c1	Nrf2 activator 4.5µM (no result: GRP78 ERSR act, Mito fusion act)
COc1ccc(Cc2nc(-c3ccc(-n4cccc4)cc3)no2)cc1	Nrf2 block inconclusive
COc1ccc(Cc2nc(-c3ccc(-n4cccc4)cc3)no2)cc1OC	Nrf2 block 16µM
Cn1cc(NC(=O)OCc2ccc(Cl)cc2)c(C(F)(F)F)n1	Nrf2 block inconclusive
CCCCN(CC)CCNC(=O)CNC(=O)Cn1ccc2ccccc2c1=O	none
CCCCN(C)CCNC(=O)CCNC(=O)Cn1ccc2ccccc2c1=O	Mito fusion act 18µM
COC(=O)C1CCN(C(=O)COC(=O)Cn2cnnn2)CC1	none
COCC(=O)Nc1cc(C(=O)N2CCSCC2)cc2nc(-c3ccccc3)n(C)c12	none (no result: Nrf2 block, Mito fusion act, miR-21 reporter, Nrf2 activator, A549 viability)
COc1cc(/C=C(\C#N)c2nc3ccc(C)cc3[nH]2)cc([N+](=O)[O-])c1O	GRP78 ERSR act inconclusive, Nrf2 block inconclusive, A549 viability 21µM
Brc1ccccc1-c1nnc(CSc2nncn2-c2ccccc2)o1	none
O=c1c2ccccc2nc(SCc2nnc(-c3ccccc3Br)o2)n1-c1ccccc1	Nrf2 block 10µM
CCC(C)NS(=O)(=O)c1ccc(NC(=O)C2CCCO2)cc1 (stereo not drawn)	Nrf2 block inconclusive
CC(C)c1ccc(NC(=O)C(c2ccccc2)N2CCC3(CC2)OCCO3)cc1 (stereo not drawn)	Nrf2 block 15µM
COc1ccc(-n2c(=S)[nH]c3cc(C(=O)NCc4ccc(F)cc4)ccc3c2=O)c(OC)c1	Nrf2 block 16µM
COc1ccc(-n2c(=S)[nH]c3cc(C(=O)Nc4ccc(F)cc4)ccc3c2=O)c(OC)c1	Nrf2 block 21µM
COc1ccc(-n2c(=S)[nH]c3cc(C(=O)NCc4ccccc4OC)ccc3c2=O)c(OC)c1	Nrf2 block inconclusive
Cc1ccc2c(c1)N(C)/C(=C/c1cccc[n+]1C)S2	Nrf2 block 6.5µM, A549 viability inconclusive
Cc1cccc(C)c1OCc1cc(C(=O)N(Cc2c(C)nn(C)c2C)C2CC2)no1	Nrf2 block 23µM
Oc1ccc(N2CCN(c3ncnc4sc(-c5ccccc5)cc34)CC2)cc1	Nrf2 block 21µM
CCc1cc2c(N3CCN(c4ccccc4)CC3)ncnc2s1	Nrf2 block 18µM
Cc1[nH]n(-c2ccccc2)c(=O)c1C(=O)c1ccc([N+](=O)[O-])cc1	Nrf2 block inconclusive
Cc1nn(-c2ccccc2)nc1C(=O)c1c(C)[nH]n(-c2ccccc2)c1=O	Nrf2 block 21µM, A549 viability inconclusive

Screening results as filed in PubChem BioAssay.
